Data as given in ChEMBL document CHEMBL5154939, “Improved Binding Affinity and Pharmacokinetics Enable Sustained Degradation of BCL6 In Vivo” (J Med Chem, 2022).

Target: B-cell lymphoma 6 protein (Homo sapiens, UniProt P41182)
Test: Degradation of BCL6 in human OCI-Ly1 cells incubated for 2 hrs by MSD assay
Format: cell-based
How it was run: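 Lysates were read by MSD sandwich immunoassay (goat capture, rabbit detection anti-BCL6, electrochemiluminescence). Signal was normalised to DMSO (high) and a reference degrader control at 2 μM (low). DC50 came from a four-parameter logistic fit, with Dmax reported.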

## Cn1c(=O)n(CCC(C)(C)O)c2cc(Nc3nc(N4CCC(F)(F)C(CO)C4)ncc3Cl)ccc21 (racemic)
  EC50: 80 nM
